Source: PubChem BioAssay (Tox21)
The entries are a selection whose mix differs from that of the whole data set. Inconclusive results are not listed. The source made the active and inactive calls. Unless noted, calls follow the shape of the dose curve; as a rule, active = well fitted curve in the direction sought with a large enough effect in the repeat runs; inconclusive = weak or mixed curves; inactive = no such curve, though single readings can be large; an effect the other way counts as inactive or inconclusive.

Sequences of proteins named here, by UniProt entry; tags and fusion partners are left off. A change or cut given only in a name is not applied to a line headed by its entry.
UniProt P10275: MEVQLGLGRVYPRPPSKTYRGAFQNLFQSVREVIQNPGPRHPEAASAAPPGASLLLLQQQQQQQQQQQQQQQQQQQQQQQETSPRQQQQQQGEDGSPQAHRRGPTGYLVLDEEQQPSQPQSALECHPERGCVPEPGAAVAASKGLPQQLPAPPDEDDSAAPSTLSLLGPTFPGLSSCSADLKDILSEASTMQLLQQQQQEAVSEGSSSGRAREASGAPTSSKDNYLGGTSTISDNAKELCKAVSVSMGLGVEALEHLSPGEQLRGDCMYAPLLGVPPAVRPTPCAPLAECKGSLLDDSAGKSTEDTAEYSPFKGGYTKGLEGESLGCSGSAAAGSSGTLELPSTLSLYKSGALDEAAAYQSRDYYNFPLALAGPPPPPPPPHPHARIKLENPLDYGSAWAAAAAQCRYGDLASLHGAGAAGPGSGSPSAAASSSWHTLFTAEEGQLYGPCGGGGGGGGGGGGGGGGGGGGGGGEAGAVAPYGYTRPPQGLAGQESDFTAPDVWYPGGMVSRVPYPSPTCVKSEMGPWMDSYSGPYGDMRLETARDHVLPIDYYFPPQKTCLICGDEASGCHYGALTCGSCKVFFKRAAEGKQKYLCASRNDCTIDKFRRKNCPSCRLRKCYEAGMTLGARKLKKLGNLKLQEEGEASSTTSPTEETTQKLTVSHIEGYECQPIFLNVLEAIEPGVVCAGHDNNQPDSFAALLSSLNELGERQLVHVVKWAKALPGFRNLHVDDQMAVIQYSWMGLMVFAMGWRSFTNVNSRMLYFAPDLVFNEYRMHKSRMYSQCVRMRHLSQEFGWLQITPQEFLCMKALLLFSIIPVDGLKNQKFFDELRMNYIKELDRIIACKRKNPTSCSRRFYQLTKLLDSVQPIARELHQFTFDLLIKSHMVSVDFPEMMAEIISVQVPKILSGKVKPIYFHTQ
UniProt P03372, whole entry, looked up: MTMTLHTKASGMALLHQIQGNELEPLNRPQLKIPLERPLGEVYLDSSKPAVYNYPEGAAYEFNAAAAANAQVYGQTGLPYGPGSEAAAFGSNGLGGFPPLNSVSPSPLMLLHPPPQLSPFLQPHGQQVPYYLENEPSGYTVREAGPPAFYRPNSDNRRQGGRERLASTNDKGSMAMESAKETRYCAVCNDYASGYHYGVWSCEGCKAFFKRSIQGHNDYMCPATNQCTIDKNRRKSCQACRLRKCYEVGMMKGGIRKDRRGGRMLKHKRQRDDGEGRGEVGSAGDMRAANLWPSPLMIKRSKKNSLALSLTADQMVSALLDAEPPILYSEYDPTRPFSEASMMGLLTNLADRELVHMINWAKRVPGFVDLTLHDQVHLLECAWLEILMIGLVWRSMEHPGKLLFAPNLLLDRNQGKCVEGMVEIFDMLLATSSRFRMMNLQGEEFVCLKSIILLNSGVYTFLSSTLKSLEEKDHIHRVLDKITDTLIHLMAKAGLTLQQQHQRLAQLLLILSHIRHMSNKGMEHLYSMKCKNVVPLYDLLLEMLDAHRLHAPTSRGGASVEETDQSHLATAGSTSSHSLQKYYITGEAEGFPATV
UniProt Q92731, whole entry, looked up: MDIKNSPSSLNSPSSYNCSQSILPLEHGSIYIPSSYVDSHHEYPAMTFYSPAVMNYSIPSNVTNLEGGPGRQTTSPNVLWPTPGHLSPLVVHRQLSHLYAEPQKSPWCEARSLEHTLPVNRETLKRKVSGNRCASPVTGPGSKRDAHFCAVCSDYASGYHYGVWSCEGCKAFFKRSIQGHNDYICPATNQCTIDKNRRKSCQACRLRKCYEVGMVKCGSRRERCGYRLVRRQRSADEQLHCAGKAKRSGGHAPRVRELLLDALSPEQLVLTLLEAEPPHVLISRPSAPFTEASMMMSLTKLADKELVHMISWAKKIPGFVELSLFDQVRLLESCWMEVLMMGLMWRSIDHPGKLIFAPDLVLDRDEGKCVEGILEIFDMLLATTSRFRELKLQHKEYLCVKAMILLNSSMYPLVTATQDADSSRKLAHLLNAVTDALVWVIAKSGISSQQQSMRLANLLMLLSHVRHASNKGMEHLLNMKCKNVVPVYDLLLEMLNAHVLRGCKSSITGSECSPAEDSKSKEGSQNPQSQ

Assays:
[1] = qHTS RealTime-Glo MT Cell Viability Assay in HEK293 cells - 16 hour (AID 1224872); also: nearly all actives have a fitted effect of over 50% in size; also: potency is read from the fitted curve at half-maximal effect; as to activity change, negative = cytotoxicity: top concentration of the series differs between compounds
In short: (§1)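 Cells + reagent dispensed (600 cells/well, HEK293) → 5 h at 37 C/5% CO2 → 23 nL compound in DMSO pinned → 40 h at 37 C → luminescence read at 0, 8, 16, 24, 32, 40 h.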

[2] = qHTS RealTime-Glo MT Cell Viability Assay in HepG2 cells - 8 hour (AID 1224873); also: nearly all actives have a fitted effect of over 55% in size; also: potency is read from the fitted curve at half-maximal effect
In short: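 HepG2 cells mixed with RealTime-Glo MT reagents (NanoLuc plus cell-permeant prosubstrate) were seeded at 600 cells/well, incubated 5 h at 37 C/5% CO2, then pinned with compounds in DMSO; nonlytic luminescence tracked viability during 40 h treatment.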

[3] = qHTS RealTime-Glo MT Cell Viability Assay in HEK293 cells - 40 hour (AID 1224874); details: RealTime-Glo luminescence; max response: active compounds read low; also: nearly all actives have a fitted effect of over 50% in size
In short: (§2)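 Cells were seeded together with NanoLuc luciferase and a prosubstrate that viable cells reduce to a luciferase substrate. After a 5 h incubation at 37 C/5% CO2, compounds were added and luminescence was measured repeatedly during 40 h of treatment.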

[4] = A CellTox Green Cytotoxicity Assay to monitor cytotoxicity in HepG2 cells - 16 hour (AID 1224876); also: nearly all actives have a fitted effect of over 45% in size; also: potency is read from the fitted curve at half-maximal effect
In short: (§3)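 Read-out is fluorescence of a cyanine dye excluded from live cells that stains DNA of dead HepG2 cells, with signal proportional to cytotoxicity. Plates were read at 0, 8, 16, 24, 32 and 40 h after compound addition.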

[5] = A CellTox Green Cytotoxicity Assay to monitor cytotoxicity in HepG2 cells - 24 hour (AID 1224878); also: nearly all actives have a fitted effect of over 45% in size; also: potency is read from the fitted curve at half-maximal effect
In short: as §3

[6] = A CellTox Green Cytotoxicity Assay to monitor cytotoxicity in HepG2 cells - 40 hour (AID 1224879); also: nearly all actives have a fitted effect of over 40% in size
In short: as §3

[7] = qHTS RealTime-Glo MT Cell Viability Assay in HEK293 cells - 0 hour (AID 1224880); details: RealTime-Glo luminescence; at 76.8 µM (top of the series) unless noted; also: top concentration of the series differs between compounds; nearly all actives have a fitted effect of over 45% in size
In short: as §2

[8] = qHTS RealTime-Glo MT Cell Viability Assay in HEK293 cells - 24 hour (AID 1224886); also: top concentration of the series differs between compounds; nearly all actives have a fitted effect of over 50% in size
In short: as §1

[9] = qHTS RealTime-Glo MT Cell Viability Assay in HEK293 cells - 8 hour (AID 1224887); also: nearly all actives have a fitted effect of over 50% in size; also: potency is read from the fitted curve at half-maximal effect; as to activity change, negative = cytotoxicity: top concentration of the series differs between compounds
In short: as §2

[10] = qHTS RealTime-Glo MT Cell Viability Assay in HepG2 cells - 0 hour (AID 1224889); details: RealTime-Glo luminescence; at 76.8 µM (top of the series) unless noted; also: nearly all actives have a fitted effect of over 50% in size
In short: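 Real-time, nonlytic viability: 600 HepG2 cells/well mixed with NanoLuc enzyme plus prosubstrate; 5 h settle, compound (DMSO) added by pintool; luminescence monitored over 40 h at 37 C.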

[11] = qHTS assay to identify small molecule antagonists of the estrogen receptor alpha (ER-alpha) signaling pathway using the BG1 cell line in the presence of 0.1 nM 17-beta-estradiol - cell viability counter screen (AID 1259241); also: nearly all actives have a fitted effect of over 40% in size
In short: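 Cytotoxicity counter-screen: live-cell protease activity measured by fluorescence (30 min reagent step) in the same wells. Cells were VM7Luc4E2 with endogenous ER-alpha and ERE-driven luciferase, treated 22 hr at 37C alongside 0.1 nM 17beta-estradiol final.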

[12] = qHTS assay to identify small molecule antagonists of the androgen receptor (AR) signaling pathway using the MDA cell line in the presence of 0.5 nM R1881 - cell viability counter screen (AID 1259242); also: nearly all actives have a fitted effect of over 45% in size; also: potency is read from the fitted curve at half-maximal effect
In short: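 Counter screen for cytotoxicity run in the same wells as the AR antagonist reporter screen: MDA-kb2 cells were treated 16 hr with test compounds and 0.5 nM R1881, then live-cell protease activity was measured by fluorescence.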

[13] = target: Androgen receptor (Homo sapiens) (UniProt P10275); test: qHTS assay to identify small molecule antagonists of the androgen receptor (AR) signaling pathway using the MDA cell line in the presence of 0.5 nM R1881 (AID 1259243); also: nearly all actives have a fitted effect of over 50% in size; also: potency is read from the fitted curve at half-maximal effect
[14] = target: Estrogen receptor (Homo sapiens) (UniProt P03372); test: qHTS assay to identify small molecule antagonists of the estrogen receptor alpha (ER-alpha) signaling pathway using the BG1 cell line in the presence of 0.1 nM 17-beta-estradiol (AID 1259244); details: VM7Luc4E2 (BG1) ERE-luciferase, antagonist mode, 0.1 nM E2, 22 h; at 92.4 µM (top of the series) unless noted; also: nearly all actives have a fitted effect of over 50% in size
[15] = qHTS assay to identify small molecule HDAC inhibitors (AID 1259364); details: HCT-116 HDAC-Glo I/II luminescence, 2 h; at 92.4 µM (top of the series) unless noted
In short: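 Luminescence from a cell-permeant luminogenic class I/II HDAC substrate reports endogenous deacetylase activity in intact HCT-116 cells treated with compounds for 2 h.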

[16] = qHTS assay to identify small molecule HDAC inhibitors - cell viability counter screen (AID 1259365); details: HCT-116 viability, CellTiter-Glo ATP luminescence, 2 h; at 92.4 µM (top of the series) unless noted; also: nearly all actives have a fitted effect of over 50% in size
In short: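 CellTiter-Glo luminescence (30 min, room temperature) reported viability after a 2 h compound exposure at 37 C. Cells: wild-type HCT-116, 1,500 per well, seeded the night before.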

[17] = qHTS assay to identify small molecule agonists of the sonic hedgehog signaling (Shh) pathway - cell viability counter screen (AID 1259366); also: nearly all actives have a fitted effect of over 50% in size; also: potency is read from the fitted curve at half-maximal effect
In short: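 Cytotoxicity counter screen: CellTiter-Fluor reagent added after 23 h compound exposure, then 1 h at 37C and fluorescence read. Cells were 3T3 Gli1-Luc, seeded 2,000 per well and dosed 4 h post-plating.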

[18] = qHTS assay to identify small molecule agonists of the sonic hedgehog signaling (Shh) pathway (AID 1259368; calls by dose curve;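 also: NIH/3T3-derived 3T3Gli1-Luc cells carrying a stable Gli1-driven firefly luciferase reporter; nearly all actives have a fitted effect of over 15% in size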); details: NIH/3T3 Gli1-Luc reporter, luciferase, 24 h, active compounds read high; at 92.4 µM (top of the series) unless noted
In short: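 3T3Gli1-Luc (NIH/3T3 clone, stable Gli1-Luc); 4 hr pre-incubation, then cpd in DMSO 24 hr, 37 C/5% CO2; luciferase reagent 30 min RT; luminescence.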

[19] = target: Estrogen receptor beta (Homo sapiens) (UniProt Q92731); test: qHTS assay to identify small molecule agonists of the estrogen receptor beta (ER-beta) signaling pathway (AID 1259377; active = well fitted activation curve with a large enough effect in the signal ratio in the repeat runs, not every such curve was filed as active; the % refers to the signal ratio); details: ER-beta-UAS-bla HEK293T, beta-lactamase FRET ratio, 16 h; at 92.4 µM (top of the series) unless noted
[20] = qHTS assay to identify small molecule antagonists of the sonic hedgehog signaling (Shh) pathway (AID 1259369; calls by dose curve; also: nearly all actives have a fitted effect of over 45% in size; also: potency is read from the fitted curve at half-maximal effect)
In short: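 3T3Gli1-Luc, conditioned-medium-stimulated, 24hr cpd, 37C/5% CO2; Gli1-driven firefly Luc luminescence after 30min RT with luciferase reagent. Cells plated 4hr before cpd.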
% is scaled to controls: 0 for no effect and ±100 for the full control effect.

CN(C(=O)Cc1ccc(Cl)c(Cl)c1)[C@H]1CC[C@@]2(CCCO2)C[C@@H]1N1CCCC1
inactive: Potency [1] | Potency [2] | max response [3] -21.6% | Potency [4] | Potency [5] | Potency [6] | activity change, negative = cytotoxicity [7] 3.76% [at 35.3 µM] | Potency [8] | Potency [9] | activity change, negative = cytotoxicity [10] 11.1% [at 35.3 µM] | Potency [11] | Potency [12] | Potency [13] | activity change, negative = inhibition [14] 0.487% [at 42.5 µM] | activity change, negative = inhibition [15] 8.73% [at 42.5 µM] | activity change, negative = cytotoxicity [16] -0.693% [at 42.5 µM] | Potency [17] | activity change [18] -2.07% [at 42.5 µM] | activation [19] -1.3% [at 42.5 µM]

CCOP(=S)(CC)Sc1ccccc1 (stereo not given)
inactive: Potency [1] | Potency [2] | max response [3] 1.72% | Potency [4] | Potency [5] | Potency [6] | activity change, negative = cytotoxicity [7] -7.82% | Potency [8] | Potency [9] | activity change, negative = cytotoxicity [10] -10.1% | Potency [11] | Potency [12] | activity change, negative = inhibition [14] -5.81% | activity change, negative = inhibition [15] -0.519% | activity change, negative = cytotoxicity [16] -12.7% | Potency [17] | activity change [18] 1.12% | Potency [20] | activation [19] -2.86%

O=[P+](Oc1ccccc1)Oc1ccccc1
inactive: Potency [1] | Potency [2] | max response [3] 10.7% | Potency [4] | Potency [5] | Potency [6] | activity change, negative = cytotoxicity [7] 12.8% | Potency [8] | Potency [9] | activity change, negative = cytotoxicity [10] 1.82% | Potency [11] | Potency [12] | Potency [13] | activity change, negative = inhibition [14] 5.13% | activity change, negative = inhibition [15] 3.89% | activity change, negative = cytotoxicity [16] 4.17% | Potency [17] | activity change [18] -0.872% | Potency [20]

O=[As]c1ccccc1 (stereo not given)
inactive: activity change, negative = cytotoxicity [7] 3.43% | activity change, negative = cytotoxicity [10] 4.37% | activity change, negative = inhibition [14] -109% | activity change [18] -11.8%
active: Potency [1] 0.49 µM | Potency [2] 1.74 µM | Potency [4] 1.23 µM | Potency [5] 1.23 µM | Potency [9] 3.09 µM | Potency [12] 3.06 µM | Potency [13] 0.344 µM | Potency [17] 0.172 µM | Potency [20] 0.0863 µM

O=[p+]1oc2ccccc2c2ccccc21 (stereo not given)
inactive: Potency [1] | Potency [2] | max response [3] -0.543% | Potency [4] | Potency [5] | Potency [6] | activity change, negative = cytotoxicity [7] 5.69% | Potency [8] | Potency [9] | activity change, negative = cytotoxicity [10] 4.82% | Potency [11] | Potency [12] | activity change, negative = inhibition [14] 6.36% | activity change, negative = inhibition [15] 1.96% | activity change, negative = cytotoxicity [16] 1.1% | Potency [17] | activity change [18] -1.08% | activation [19] -1.6%

O=C(Cl)Oc1ccccc1
inactive: Potency [1] | Potency [2] | max response [3] 12.3% | Potency [4] | Potency [5] | Potency [6] | activity change, negative = cytotoxicity [7] -3.15% | Potency [8] | Potency [9] | activity change, negative = cytotoxicity [10] -6.27% | Potency [11] | Potency [12] | Potency [13] | activity change, negative = inhibition [14] -4.79% | activity change, negative = inhibition [15] -0.108% | activity change, negative = cytotoxicity [16] -5.55% | Potency [17] | activity change [18] -1.01% | Potency [20]

COC(=O)Cl
inactive: Potency [1] | Potency [2] | max response [3] -0.255% | Potency [4] | Potency [5] | Potency [6] | activity change, negative = cytotoxicity [7] 2.88% | Potency [8] | Potency [9] | activity change, negative = cytotoxicity [10] -0.317% | Potency [11] | Potency [12] | activity change, negative = inhibition [14] 3.89% | activity change, negative = inhibition [15] -0.902% | activity change, negative = cytotoxicity [16] -0.597% | Potency [17] | activity change [18] -1.97% | Potency [20]

N#CSc1ccc([N+](=O)[O-])cc1[N+](=O)[O-]
active: Potency [17] 7.7 µM
inactive: activity change, negative = cytotoxicity [7] -5.57% | activity change, negative = cytotoxicity [10] -3.99% | activity change [18] -12.2% | activation [19] -12.3%
